Data on 26 compounds can be found in PubChem BioAssay AID651699 (Sanford-Burnham Center for Chemical Genomics, 2012).

Chains of the proteins cited; added tags and fusions are not shown.
UniProt P61081, whole entry, looked up: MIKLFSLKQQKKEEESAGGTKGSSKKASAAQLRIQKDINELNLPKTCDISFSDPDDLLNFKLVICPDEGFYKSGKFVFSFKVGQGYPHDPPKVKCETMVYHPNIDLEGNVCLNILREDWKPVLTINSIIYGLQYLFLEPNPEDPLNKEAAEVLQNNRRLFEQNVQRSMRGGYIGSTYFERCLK
UniProt Q13564, whole entry, looked up: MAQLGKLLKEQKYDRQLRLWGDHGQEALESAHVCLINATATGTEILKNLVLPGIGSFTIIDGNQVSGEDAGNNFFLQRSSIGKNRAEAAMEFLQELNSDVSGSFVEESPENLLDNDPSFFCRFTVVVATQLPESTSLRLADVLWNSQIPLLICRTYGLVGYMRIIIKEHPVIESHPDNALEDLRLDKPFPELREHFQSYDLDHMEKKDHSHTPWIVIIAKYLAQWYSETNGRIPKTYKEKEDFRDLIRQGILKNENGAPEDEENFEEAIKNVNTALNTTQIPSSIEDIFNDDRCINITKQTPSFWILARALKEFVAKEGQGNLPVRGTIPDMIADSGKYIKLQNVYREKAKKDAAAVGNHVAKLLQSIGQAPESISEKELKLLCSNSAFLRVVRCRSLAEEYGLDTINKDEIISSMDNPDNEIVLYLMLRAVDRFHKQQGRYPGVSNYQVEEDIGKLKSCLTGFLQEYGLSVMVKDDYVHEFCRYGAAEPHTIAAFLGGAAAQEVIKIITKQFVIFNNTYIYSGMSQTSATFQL

Only a part is listed here, and it is no random draw. Some results for these compounds are left out of this collection, so the calls shown say nothing about other tests. Activity calls are given as the source filed them. No stated cut-off is given here; in the data, active means inhibition above about 36%; inactive means the rest.

The target of the assay is NEDD8-conjugating enzyme Ubc12 (Homo sapiens) + NEDD8-activating enzyme E1 regulatory subunit (Homo sapiens) (UniProt P61081+Q13564). The assay is described as follows: inhibitors of cullin neddylation, primary screen, biochemical, TR-FRET, uHTS, NAE and Ubc12 (AID 651699). The following applies: at 25 µM, hits give high values.
On to `O=C(OC1CN2CCC1CC2)C(CO)(c1ccccc1)c1ccccc1` (stereo unspecified), for which the inhibition is inactive: -5.03%.

Regarding `CN(C)c1cccc(C(=O)NCC2(N(C)C)CCCCC2)c1`, the inhibition was inactive: 21.9%.

On to `O=C(OCCN1CCCC1)C(O)(c1ccccc1)c1ccccc1`, for which the inhibition was inactive: -3.19%.

In the case of `CC(C)Oc1ccc(C(=O)NCC2(N(C)C)CCCCC2)cc1`, the inhibition was inactive: -6.67%.

With `COc1ccc(Br)c(C(=O)NCC2(N3CCCCC3)CCCCC2)c1`, the inhibition was inactive: -4.42%.

With `C=C(C)C#CC(O)(C(=O)OC1CCN(C)CC1)c1ccccc1` (stereo unspecified), the inhibition was inactive: 1.24%.

With `COc1cc(C(=O)NCC2(N(C)C)CCCCC2)c([N+](=O)[O-])cc1OC`, the inhibition was inactive: -5.65%.

As for `CN(C)C1(CNC(=O)c2ccc(Br)cc2)CCCCC1`, the inhibition is inactive: 1.84%.

Take `O=C(NCC1(N2CCCCC2)CCCCC1)c1cccc(Cl)c1`: the inhibition was inactive: -0.84%.

Consider `COc1ccc(Cl)cc1C(=O)NCC1(N(C)C)CCCCC1`, for which the inhibition was inactive: 3.28%.

Take `COc1cccc(C(=O)NCC2(N3CCCCC3)CCCCC2)c1`: the inhibition was inactive: 0.67%.

Take `CN(C)c1ccc(C(=O)NCC2(N(C)C)CCCCC2)cc1`: the inhibition was inactive: -9.2%.

With `CN(C)C1CCCC1OC(=O)C(O)(c1ccccc1)c1ccccc1` (stereo unspecified), the inhibition was inactive: -8.64%.

As for `Cc1ccccc1C(=O)NCC1(N2CCCCC2)CCCCC1`, the inhibition was inactive: -4.13%.

Turning to `O=C(NCC1(N2CCCCC2)CCCCC1)c1cccc(Br)c1`, the inhibition was inactive: -2.55%.

Regarding `CCN1CCCC(OC(=O)C2(O)c3ccccc3C=Cc3ccccc32)C1` (stereo unspecified), the inhibition was inactive: 16.8%.

`Cc1cc(C(=O)NCC2(N3CCCCC3)CCCCC2)ccc1[N+](=O)[O-]`: the inhibition is inactive: -36.8%.

In the case of `COc1ccc(C(=O)NCC2(N(C)C)CCCCC2)cc1`, the inhibition is inactive: -0.51%.

In the case of `O=C(NCC1(N2CCCCC2)CCCCC1)c1cc(F)c(F)cc1Cl`, the inhibition is inactive: -5.9%.

For `C=CCN1CCN(CCOC(=O)C(O)(c2ccccc2)c2ccccc2)CC1`, the inhibition was inactive: -0.11%.

Turning to `CN1[C@@H]2CC[C@H]1CC(OC(=O)C(O)(c1ccccc1)c1ccccc1)C2` (stereo partly specified), the inhibition is inactive: -13.9%.

With `O=C(NCC1(N2CCCCC2)CCCCC1)c1cc([N+](=O)[O-])ccc1Cl`, the inhibition is inactive: -15.2%.

Consider `Cc1ccc(C(=O)NCC2(N3CCCCC3)CCCCC2)cc1`, for which the inhibition was inactive: 4.32%.

Turning to `CC(C)N1C(=O)CC2(CCN(CCOC(=O)C(O)(c3ccccc3)c3ccccc3)CC2)C1=O`, the inhibition is inactive: 1.1%.

For the compound `COc1cc(SC)ccc1C(=O)NCC1(N(C)C)CCCCC1`, the inhibition is inactive: -4.6%.

Regarding `CCN(CC)CC(C)C(C)OC(=O)C(O)(c1ccccc1)c1ccccc1` (stereo unspecified), the inhibition was inactive: 7.11%.
